This series deals with NADPH. The series can be described thus: purified protein, by the assay type. To be noted: other: S. japonicum; pH 6.8; 37.0 °C.

For rSjOAR (Schistosoma japonicum), the Km (usually the concentration of substrate that gives half-maximal velocity) is 93.6 ± 4.2 µM.

These data come from paper PMC3676400, “3-Oxoacyl-ACP Reductase from Schistosoma japonicum: Integrated In Silico-In Vitro Strategy for Discovering Antischistosomal Lead Compounds” (PLoS ONE, 2013).
